Only a part is listed here, and it is no random draw. Activity calls are given as the source filed them.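 Rule for the calls: active = inhibition above 20% in each of the two mixture wells holding the compound; inactive = inhibition of 20% or less in either well.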

Amino acid sequences for entries named in this document (tags omitted). Residues count along the entry.
UniProt P08311, 21-244 limits assumed: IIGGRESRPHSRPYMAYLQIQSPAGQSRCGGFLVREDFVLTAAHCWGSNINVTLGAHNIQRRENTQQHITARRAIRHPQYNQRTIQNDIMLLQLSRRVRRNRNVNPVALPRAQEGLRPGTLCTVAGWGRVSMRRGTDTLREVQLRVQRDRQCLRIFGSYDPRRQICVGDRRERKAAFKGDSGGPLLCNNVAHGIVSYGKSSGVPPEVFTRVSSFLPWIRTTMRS

This test deals with Cathepsin G (Homo sapiens) (UniProt P08311). Put plainly: human cathepsin G inhibitors, primary screen, biochemical, pooled compound mixtures, AMC fluorescence (AID 581).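 Note: 0% = enzyme control without mixture and 100% = blank lacking enzyme.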 Particulars: purified enzyme, AMC-tetrapeptide fluorescence, active compounds read high, screened at 5 µM (by protocol).
The term inhibition denotes the drop in the measured response relative to a control, in per cent. Regarding `CCC(CO)(C(=O)OC1CN2CCC1CC2)c1ccccc1` (stereo unspecified), the inhibition is inactive: -3.1%.
Then `CCOc1ncccc1C(=O)NCC1(N2CCOCC2)CCCCC1`, with inactive: 11.6%.
To `Fc1ccccc1NC1CCN(Cc2ccccc2)CC1` belongs inactive: 7.55%.
Then `N/C(=N\O)c1c(N)no[n+]1[O-]`, with inactive: 0.665%; and `N#CC1(Nc2ccccc2)CCN(CCc2ccccc2)CC1`, with inactive: 5.98%; and `O=C(OC1CN2CCC1CC2)C1c2ccccc2Oc2ccccc21` (stereo unspecified), with inactive: 8.44%.

(Values after PubChem BioAssay AID581 (PCMD, 2007).)
